Source: ChEMBL document CHEMBL2069294, “Synthesis and evaluation of hybrid drugs for a potential HIV/AIDS-malaria combination therapy” (Bioorg Med Chem, 2012)

System: HeLa
Assay: Cytotoxicity against human HeLa cells by MTT assay
Type: cell-based

Work on `C1OOCOO1` yielded an IC50 of over 100 µM.
